Values quoted from earlier work as cited in patent US20020082448A1, “Aminoguanidine carboxylates for the treatment of non-insulin-dependent diabetes mellitus” (The Upjohn Company, priority 1999, published 2002).

Tested on: non-insulin dependent diabetic patients
Details: 1000-3000 mg/day; cited from earlier work

CN(C)C(=N)N=C(N)N [Metformin]
effect on hyperglycemia: reduce hyperglycemia
